The record followed here is patent publication US20230312510A1, “COMPOUNDS AND METHODS FOR TREATING NEURODEGENERATIVE DISEASES” (The McLean Hospital Corporation, priority 2020, published 2023).

For this test, the system named is point-mutant Nurr1-LBD. The test can be described thus: Nurr1 transactivation with point-mutant Nurr1-LBD in SK-N-BE(2)C cells. The following applies: CQ 100 μM, SPV-94 20 μM; S441, I573, I588, K590, L593, D594, T595, L596 or F598 mutants.

As to `CCN1CCN(c2cc(NCCNc3ccnc4cc(Cl)ccc34)nc(N3CCN(CC)CC3)n2)CC1` [SPV-94], the “Nurr1 transactivation with point mutations on potential binding residues of Nurr1-LBD” value was “failed to induce”.
